Counter-ions that a name gives are not always drawn.
System: S. aureus
Test: In vivo activity against systemic infection in mice, S. aureus
Details: oral, in mg/kg
From the text: The PD50 is the protective dose for 50% of the animals treated against a challenge organism.

CC1(C)S[C@@H]2[C@H](NC(=O)[C@@H](c3ccc(O)cc3)N(C3CCCCO3)C3CCCCO3)C(=O)N2[C@H]1C(=O)O (relative stereo) [Compound II, {2S-[2α,5α,6β(S*)]}-6-[bis(tetrahydro-2-H-pyran-2-yl)amino]{[(4-hydroxyphenyl)acetyl]amino}-3,3-dimethyl-7-oxo-4-thia-1-azabicyclo[3.2.0]heptane3-carboxylic acid sodium salt]
PD50: 0.6

Reference: patent US4317775A (Hoffmann-La Roche Inc., priority 1980, dated 1982)
